Measured values taken from ChEMBL document CHEMBL4152336, “Optimization of the first small-molecule relaxin/insulin-like family peptide receptor (RXFP1) agonists: Activation results in an antifibrotic gene expression profile” (Eur J Med Chem, 2018).

System: HEK293
Test: Cytotoxicity against HEK293 cells assessed as reduction in cell viability by measuring ATP level by ATPlite assay
Format: cell-based
Conditions: Homo sapiens

CCCCOc1ccccc1C(=O)Nc1ccccc1C(=O)Nc1cccc(S(=O)(=O)C(F)(F)F)c1
pEC50: 4.23

pEC50: −log10 of the molar value.
